{"source": "patent US8436195B2", "about": "(priority 2006, dated 2013)", "tested_on": "cancer cells PC-3 (prostate carcinoma)", "experiment": "Mitochondria membranes of PC-3 cancer cells after incubation with preparation", "type": "cell-based", "conditions": "PC-3 cells, same dilution, 72 hours at 37° C.; with membrane swelling", "description": "A control group was also formed consisting of the same number of vials with the same components except cancer cells, and instead, fibroblasts were put in the group vials. After thermostatting for 72 hours at 37° C. the contents of the above vials was analyzed.", "data": [{"substance": "rheaferon: a recombinant α2-interferon produced by a pseudomonade bacterial strain; closest analogue-prototype", "values": [{"measurement": "partial destruction of mitochondria membranes", "result": "about 60%"}]}]}
